Results: patent US10765664B2, “Treatment of infectious diseases” (CHILDREN'S MEDICAL CENTER CORPORATION, priority 2015, dated 2020)

Test system: IFITM3
Test: IFITM3 mRNA in THP-1 cells stimulated with cytokines or TLR agonists, real time PCR
Format: cell-based, human

B1: IFN-β: recombinant IFN-β, positive control for IFITM3 induction (protein, UniProt P01574 22-187, looked up)
Interferon beta: MSYNLLGFLQRSSNFQCQKLLWQLNGRLEYCLKDRMNFDIPEEIKQLQQFQKEDAALTIYEMLQNIFAIFRQDSSSTGWNETIVENLLANVYHQINHLKTVLEEKLEKEDFTRGKLMSSLHLKRYYGRILHYLKAKEYSHCAWTIVRVEILRNFYFINRLTGYLRN
24 hours
  increase in IFITM3 mRNA: ~6 fold
48 hours
  increase in IFITM3 mRNA: ~12 fold
